The values below are quoted from earlier work in patent US5981555A (dated 1999).

The subject of this data set is inflammation. Conditions: Physician's Desk Reference, 51st ed.; cited from earlier work.

In the case of `CC(C)Cc1ccc(C(C)C(=O)O)cc1` (stereo not shown) [ibuprofen], the “Minimum Anti-inflammatory Dosage” value was 300 mg.
